For this assay, the target named is Cezanne 1 (Homo sapiens (Human), UniProt Q6GQQ9). Kind of assay: Cezanne 1 biochemical IC50 assay. The settings on record: read-out: IC50 range; FLAG-Cezanne 1 purified from HEK293T cells; fluorescence polarisation, TAMRA labelled peptide linked to ubiquitin; 30 min preincubation, 2 hr read. As to the method:
The Cezanne 1 construct was PCR amplified and cloned into a pFLAG-CMV-6c vector (Sigma-Aldrich) with an N-terminal FLAG tag. HEK293T cells were transfected with FLAG-Cezanne 1 using TransIT-LT1 transfection reagent (Mirus) according to the manufacturer's instructions. Cells were harvested 48 hours after transfection. […]
Dilution plates were prepared at 21 times the final concentration (2100 μM for a final concentration of 100 μM) in 50% DMSO in a 96-well polypropylene V-bottom plate (Greiner #651201). […] Reactions were initiated by the addition of 50 nM of TAMRA labelled peptide linked to ubiquitin via an iso-peptide bond as fluorescence polarisation substrate. Reactions were read immediately after addition of substrate and following a 2 hr incubation at room temperature. Readings were performed on a Pherastar Plus (BMG Labtech). λ Excitation 540 nm; λ Emission 590 nm.
On the technique in general: In fluorescence polarisation assays a small probe gives low polarisation when free and higher when bound to something large.

Protein sequences, listed by entry. Tags and fused reporters are not part of them.
UniProt Q6GQQ9, whole entry: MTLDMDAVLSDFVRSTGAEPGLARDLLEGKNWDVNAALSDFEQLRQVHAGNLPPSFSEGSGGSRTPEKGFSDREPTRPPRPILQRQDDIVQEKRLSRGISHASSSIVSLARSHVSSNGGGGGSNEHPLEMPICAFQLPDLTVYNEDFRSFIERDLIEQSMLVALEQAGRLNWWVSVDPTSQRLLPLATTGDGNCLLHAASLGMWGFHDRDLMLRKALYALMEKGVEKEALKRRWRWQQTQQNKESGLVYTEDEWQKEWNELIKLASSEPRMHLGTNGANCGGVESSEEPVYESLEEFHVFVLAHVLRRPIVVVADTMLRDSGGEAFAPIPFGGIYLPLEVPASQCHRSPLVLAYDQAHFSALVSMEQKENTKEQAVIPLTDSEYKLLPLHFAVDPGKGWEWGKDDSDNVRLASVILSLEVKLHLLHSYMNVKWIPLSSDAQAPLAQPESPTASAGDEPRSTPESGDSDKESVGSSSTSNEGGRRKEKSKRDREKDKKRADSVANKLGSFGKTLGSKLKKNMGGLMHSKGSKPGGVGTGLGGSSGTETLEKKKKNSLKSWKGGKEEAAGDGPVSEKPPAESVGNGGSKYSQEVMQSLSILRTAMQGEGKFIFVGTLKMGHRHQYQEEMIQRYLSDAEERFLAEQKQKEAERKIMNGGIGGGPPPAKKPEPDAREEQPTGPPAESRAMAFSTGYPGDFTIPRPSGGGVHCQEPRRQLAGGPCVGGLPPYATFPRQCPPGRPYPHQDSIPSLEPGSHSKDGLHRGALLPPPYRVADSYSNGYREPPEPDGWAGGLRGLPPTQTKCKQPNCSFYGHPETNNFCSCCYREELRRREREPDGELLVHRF

Molecules are shown by their SMILES.

The term IC50 denotes the point on the concentration scale where inhibition reaches its midpoint. Consider `N#CN1CC[C@](F)(C(=O)Nc2ncc(-c3cccc4cn[nH]c34)s2)C1`, for which the IC50 lay in the range of 100 to 1000 nM.

Values taken from US10590075B2, “Cyanopyrrolidine derivatives as inhibitors for DUBs” (Mission Therapeutics Limited, priority 2015, dated 2020).
